This is an account of results in patent US20030166645A1, “Novel nitrofuran-containing heterocyclic compounds and uses thereof” (priority 2001, published 2003).

For the experiment, the system named is Bacteroides thetaiotaomicron. It counts as cell-based.

Values after ≈ are worked out from the molar mass of the structure shown.

Turning to `CCC[C@@H]1C[C@@H](C(=O)N[C@@H]([C@H]2O[C@H](SC)[C@H](O)[C@@H](O)[C@H]2O)[C@H](C)Cl)N(C)C1` [Clindamycin], the MIC Bacteroides thetaiotaomicron was found to be 0.25 µg/mL (≈ 0.588 µM).
